Biological target: T1, CYP26A1 (Homo sapiens, UniProt O43174)
T1 sequence (O43174 1-497): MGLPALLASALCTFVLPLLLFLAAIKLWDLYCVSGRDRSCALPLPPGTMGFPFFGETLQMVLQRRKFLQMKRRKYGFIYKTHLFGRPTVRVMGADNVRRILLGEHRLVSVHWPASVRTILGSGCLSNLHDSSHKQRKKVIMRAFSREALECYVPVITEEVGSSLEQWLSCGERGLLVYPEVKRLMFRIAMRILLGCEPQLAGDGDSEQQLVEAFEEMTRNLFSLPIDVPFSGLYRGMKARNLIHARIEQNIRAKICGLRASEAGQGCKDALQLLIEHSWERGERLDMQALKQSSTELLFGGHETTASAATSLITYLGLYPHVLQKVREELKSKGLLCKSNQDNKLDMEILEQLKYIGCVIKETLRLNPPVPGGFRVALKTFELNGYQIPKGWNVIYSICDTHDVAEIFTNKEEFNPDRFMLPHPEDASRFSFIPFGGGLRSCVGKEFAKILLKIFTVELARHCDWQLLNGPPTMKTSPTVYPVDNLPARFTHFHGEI
Test: Inhibition of CYP26A1-catalyzed tazarotenic acid sulfoxide formation
Format: biochemical
Conditions: ratio of IC50 values, tazarotenic acid probe

CCc1oc2ccccc2c1C(=O)c1cc(Br)c(O)c(Br)c1 [Benzbromarone]
Selectivity for CYP26A1 (versus CYP26B1): 12.0 fold
